Experimental data taken from ChEMBL document CHEMBL2146410, “Novel N-Substituted Benzimidazolones as Potent, Selective, CNS-Penetrant, and Orally Active M1 mAChR Agonists” (ACS Med Chem Lett, 2010).

Chains of the proteins cited; added tags and fusions are not shown.
UniProt P41145, whole entry: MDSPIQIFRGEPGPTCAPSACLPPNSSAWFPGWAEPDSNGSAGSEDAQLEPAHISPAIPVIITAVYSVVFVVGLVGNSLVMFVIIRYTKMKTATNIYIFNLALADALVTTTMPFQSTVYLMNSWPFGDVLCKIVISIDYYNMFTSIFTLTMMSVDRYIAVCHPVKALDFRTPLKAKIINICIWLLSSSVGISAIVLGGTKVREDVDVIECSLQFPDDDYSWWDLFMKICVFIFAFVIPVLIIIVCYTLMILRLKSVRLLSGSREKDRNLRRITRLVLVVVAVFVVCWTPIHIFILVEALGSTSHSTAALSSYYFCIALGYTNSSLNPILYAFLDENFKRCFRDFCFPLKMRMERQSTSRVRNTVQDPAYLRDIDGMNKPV

Target: Kappa-type opioid receptor (Homo sapiens) (UniProt P41145)
Test: Inhibition of kappa opioid receptor at 1 uM

SMILES	inhibition
Cc1ccc2[nH]c(=O)n(C3CCN(C4CCOCC4)CC3)c2c1	40%
Cc1cc2c(cc1F)[nH]c(=O)n2C1CCN(C2CCOCC2)CC1	53%
